According to ChEMBL document CHEMBL1126554, “Synthesis of novel modified dipeptide inhibitors of human collagenase: beta-mercapto carboxylic acid derivatives” (J Med Chem, 1993):

How the values were obtained:
[1] = target: T1, Interstitial collagenase (Homo sapiens, UniProt P03956); assay: Inhibition of radiolabeled rat skin type I collagen degradation by purified human lung fibroblast collagenase.
T1 sequence (P03956 whole entry): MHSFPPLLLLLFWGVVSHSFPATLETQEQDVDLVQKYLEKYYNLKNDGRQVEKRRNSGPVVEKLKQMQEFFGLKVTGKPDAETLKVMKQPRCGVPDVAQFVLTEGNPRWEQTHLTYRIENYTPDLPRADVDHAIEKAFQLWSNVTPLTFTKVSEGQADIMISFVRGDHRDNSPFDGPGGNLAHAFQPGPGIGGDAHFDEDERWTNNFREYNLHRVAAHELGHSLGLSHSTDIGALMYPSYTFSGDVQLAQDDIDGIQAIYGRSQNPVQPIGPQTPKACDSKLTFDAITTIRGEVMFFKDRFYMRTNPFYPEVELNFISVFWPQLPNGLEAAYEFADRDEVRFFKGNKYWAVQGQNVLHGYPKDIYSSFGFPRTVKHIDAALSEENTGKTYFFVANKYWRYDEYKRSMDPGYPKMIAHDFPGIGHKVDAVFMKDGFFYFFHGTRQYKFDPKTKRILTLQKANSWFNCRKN
Method in brief: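 Trypsin-activated, semipurified enzyme from WI-38 lung fibroblast culture supernatants. 3H- or 14C-acetylated collagen (100 μg/tube) added at 4 °C, then 37 °C for 1000 min. Spun 12 000 rpm, 15 min, 4 °C. Supernatant peptides counted by scintillation. Enzyme set for 70% degradation.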

[2] = target: T1, Interstitial collagenase; assay: Inhibition of rat skin type I collagen degradation by purified human lung fibroblast collagenase without beta-mercaptoethanol
Method in brief: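 β-Mercaptoethanol omitted. Enzyme was trypsin-activated, semipurified collagenase from WI-38 fibroblast culture supernatants. Compounds sonicated into MeOH, serially diluted. Collagen 3H- or 14C-acetylated, 100 μg/tube, added to tubes cooled to 4 °C. Incubated 37 °C for 1000 min, centrifuged 12 000 rpm for 15 min at 4 °C. Soluble supernatant peptides counted by liquid scintillation.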

Row | SMILES | IC50 [1] [nM] | IC50 [2] [nM]
1 | CNC(=O)[C@H](Cc1ccc(OC)cc1)NC(=O)[C@@H](CC(C)C)[C@H](S)CC(=O)OCc1ccccc1 | 34 | 
2 | CNC(=O)[C@H](Cc1ccc(OC)cc1)NC(=O)C(CC(C)C)C(S)CC(=O)OCc1ccccc1 (stereo in doubt; 44b) | 4500 | 
3 | CNC(=O)[C@H](Cc1ccc(OC)cc1)NC(=O)C(CC(C)C)C(S)CC(=O)OCc1ccccc1 (stereo in doubt; 44c) | 980 | 

Molecules with a lower IC50 [1], results first:

Row | IC50 [1] [nM] | IC50 [2] [nM] | SMILES
4 | 3.1 |  | CNC(=O)[C@H](Cc1ccc(OC)cc1)NC(=O)[C@H](CC(C)C)[C@@H](S)CC(=O)OC
5 | 1.8 | 68 | CNC(=O)[C@H](Cc1ccc(OC)cc1)NC(=O)[C@H](CC(C)C)[C@@H](S)CC(=O)OCc1ccccc1
